Amino acid sequences for entries named in this document (tags omitted).
UniProt P35367, whole entry: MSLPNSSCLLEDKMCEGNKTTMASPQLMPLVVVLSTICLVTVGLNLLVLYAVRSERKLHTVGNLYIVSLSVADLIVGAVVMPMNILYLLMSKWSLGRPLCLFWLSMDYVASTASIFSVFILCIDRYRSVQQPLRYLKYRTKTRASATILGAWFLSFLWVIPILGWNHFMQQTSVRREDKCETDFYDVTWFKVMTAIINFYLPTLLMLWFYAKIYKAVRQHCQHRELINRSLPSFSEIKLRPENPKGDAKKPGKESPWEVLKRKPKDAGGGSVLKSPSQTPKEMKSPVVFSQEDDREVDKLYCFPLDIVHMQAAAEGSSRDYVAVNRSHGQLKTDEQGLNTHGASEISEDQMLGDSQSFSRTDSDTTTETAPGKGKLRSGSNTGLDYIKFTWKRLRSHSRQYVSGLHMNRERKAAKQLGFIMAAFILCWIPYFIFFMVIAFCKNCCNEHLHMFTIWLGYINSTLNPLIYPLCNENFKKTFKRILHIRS

According to patent US7709500B2, “Chemical compounds” (AstraZeneca AB, priority 2002, dated 2010):

Biological target: T1, human H1 receptor (Homo sapiens, UniProt P35367)
T1 construct: purchased Euroscreen SA, Brussels, Belgium ES-390-M; host or cells: recombinant CHO-K1 cells (membranes)
Assay: Histamine H1 receptor binding, competition displacement of [3H]-pyrilamine
Conditions: 1 nM [3H]-pyrilamine; membranes from recombinant CHO-K1 cells expressing the human H1 receptor; read-out: H1 pKi/[1328_S] (converted)

- Ki: 6.31 nM
Compound: O=C(NC[C@@H](O)CN1CCC(Oc2ccc(Cl)c(Cl)c2)CC1)c1n[nH]c(=O)c2ccccc12 [Example 46, N-{(2R)-3-[4-(3,4-Dichlorophenoxy)piperidin-1-yl]-2-hydroxypropyl}-oxo-3,4-dihydrophthalazine-1-carboxamide]
